Reference: PubChem BioAssay AID651688 (The Scripps Research Institute Molecular Screening Center, 2012)
The source made the active and inactive calls. No rule for the calls is given here.

The chains behind the UniProt entries cited, without tags or fusion partners.
UniProt P47898, whole entry, looked up: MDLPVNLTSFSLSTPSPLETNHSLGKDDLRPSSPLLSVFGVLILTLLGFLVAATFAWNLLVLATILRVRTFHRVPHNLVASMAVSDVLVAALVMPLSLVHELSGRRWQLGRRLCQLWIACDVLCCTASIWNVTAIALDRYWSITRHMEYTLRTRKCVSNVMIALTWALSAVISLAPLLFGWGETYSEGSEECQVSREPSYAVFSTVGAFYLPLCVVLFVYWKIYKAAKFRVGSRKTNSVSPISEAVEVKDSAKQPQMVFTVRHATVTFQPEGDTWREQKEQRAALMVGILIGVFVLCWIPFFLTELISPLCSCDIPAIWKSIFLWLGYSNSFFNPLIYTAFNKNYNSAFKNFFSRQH

Target: 5-hydroxytryptamine receptor 5A (Homo sapiens) (UniProt P47898)
Assay: HTR5A activation, luminescence read-out – cell-based, dose response, counter-screen for OPRM1-OPRD1 heterodimer activator project, late-stage follow-up (AID 651688)
Settings: HTR5A counterscreen cells, luminescence (beta-arrestin/complementation)

## CCOc1ccc(CN2CCC(Nc3cccc4ccccc34)CC2)cc1C#N
  EC50: inactive: > 40 µM
